The source of these data is ChEMBL document CHEMBL4321862, “Application of Bivalent Bioisostere Concept on Design and Discovery of Potent Opioid Receptor Modulators” (J Med Chem, 2019).

Chains of the proteins cited; added tags and fusions are not shown.
UniProt P42866, whole entry: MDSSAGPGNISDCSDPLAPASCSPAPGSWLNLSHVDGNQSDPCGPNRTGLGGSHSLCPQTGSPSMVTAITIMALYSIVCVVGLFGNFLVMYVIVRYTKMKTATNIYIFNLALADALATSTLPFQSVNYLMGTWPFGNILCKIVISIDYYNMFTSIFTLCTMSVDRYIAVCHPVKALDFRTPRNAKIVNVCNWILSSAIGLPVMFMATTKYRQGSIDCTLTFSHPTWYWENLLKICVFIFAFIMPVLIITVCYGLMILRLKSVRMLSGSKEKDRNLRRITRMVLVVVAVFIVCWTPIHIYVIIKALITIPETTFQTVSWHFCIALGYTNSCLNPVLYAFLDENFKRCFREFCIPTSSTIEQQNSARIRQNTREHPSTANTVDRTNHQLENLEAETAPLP

Calls of active or inactive are those of the source. The rule behind the calls is not given here.

As usually defined, the Emax is the greatest response seen or fitted, relative to the assay's reference.

Assay [1] addresses Mu-type opioid receptor (Mus musculus) (UniProt P42866). Briefly: Agonist activity at mouse mu opioid receptor expressed in CHO cells assessed as inhibition of forskolin-induced cAMP formation incubated for 8 min followed by forskolin stimulation by ELISA. The assay is classed as functional, cell-based. In outline: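 mMOR-CHO cells grown to confluency, pre-incubated 30 min at 37°C with 1 mM IBMX, 200 μM Ro 20-1724, bovine serum albumin and 20 mM HEPES (pH 7.2-7.5). Ligand then added with 10 μM forskolin for 8 min at 37°C. Media removed, cells rinsed with PBS, cAMP measured by ELISA. DMEM/F12 used as solvent throughout.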

The target is the same in assay [2]. Kind of assay: Agonist activity at mouse mu opioid receptor expressed in CHO cells cotransfected with Galphaqi5 assessed as intracellular calcium level preincubated for 60 mins in Fluo4AM solution followed by compound addition by Fluo4AM dye based assay. The assay is classed as functional, cell-based.
For assay [3] the target is unchanged. Kind of assay: Agonist activity at recombinant mouse mu opioid receptor expressed in CHO cell membrane assessed as [35]-GTPgammaS binding incubated for […] by scintillation counting method relative to DAMGO.

Take `Cl.O=C(N[C@H]1CC[C@@]2(O)[C@H]3Cc4ccc(O)c5c4[C@@]2(CCN3CC2CC2)[C@H]1O5)c1cccc2ccsc12`: the Emax entry in assay [1] is “inactive”. Besides, the result in assay [2] was inactive. In addition, the Emax in assay [3] was found to be 10.6%.
Turning to `Cl.O=C(N[C@@H]1CC[C@@]2(O)[C@H]3Cc4ccc(O)c5c4[C@@]2(CCN3CC2CC2)[C@H]1O5)c1cccc2ccsc12`, the Emax in assay [3] is 13.5%.
